Experimental data: PubChem BioAssay AID435003 (Sanford-Burnham Center for Chemical Genomics, 2010)
Only a part is listed here, and it is no random draw. Active and inactive are the calls of the source. No stated cut-off is given here; in the data, active means inhibition above about 50%; inactive means the rest.

assay: lowers stimulated NF-kB reporter luminescence – cell-based, uHTS, TCR NF-kB activation inhibitor project, primary screen (AID 435003); details: Jurkat, PMA/ionomycin-induced NF-kB luciferase reporter, at 4 µM, active compounds read high

Row | Compound | inhibition
1 | CC(NC(=O)COC(=O)C(O)(c1ccccc1)c1ccccc1)c1ccccc1 (stereo not given) | inactive: 1.92%
2 | Cc1ccc(OP(=O)(Nc2ccccn2)Oc2ccc(C)cc2)cc1 | inactive: 7.27%
3 | CC(=O)NC(SC(=S)N(CC(C)C)CC(C)C)C(Cl)(Cl)Cl (stereo not given) | inactive: 42.2%
4 | COC(=O)c1cc2c(s1)N=C(c1ccccc1)N(C)P2(=O)N1CCOCC1 (stereo not given) | inactive: 2.54%
5 | CCC(=O)N1C2C3N(C(=O)CC)C1C1N(C(=O)CC)C(C(N1C(=O)CC)N3C(=O)CC)N2C(=O)CC | inactive: -5.74%
6 | O=C(OC1CN2CCC1CC2)c1ccccc1 (stereo not given) | inactive: 8.57%
7 | O=C(O)COc1ccc([As](=O)(O)O)cc1[N+](=O)[O-] | inactive: -30.2%
8 | Nc1ccccc1[As](=O)(O)c1ccccc1 | inactive: 3.66%
9 | CS(=O)(=O)c1cc([N+](=O)[O-])c2no[n+]([O-])c2c1 | inactive: -8.7%
10 | O=P(Nc1nccs1)(c1ccccc1)c1nc2ccccc2s1 (stereo not given) | inactive: -8.65%
11 | O=P(Nc1nccs1)(Oc1ccccc1)Oc1ccccc1 | inactive: -10.5%
12 | CCOP1(=S)c2c(C)nn(CCC#N)c2N=C(c2ccccc2F)N1C (stereo not given) | inactive: -4.49%
13 | CN(C(=O)Cc1ccc(Cl)c(Cl)c1)[C@H]1CC[C@@]2(CCCO2)C[C@@H]1N1CCCC1 | inactive: -0.887%
14 | CN(C)C(=O)c1cc([N+](=O)[O-])cc2c1-c1c(cc([N+](=O)[O-])cc1[N+](=O)[O-])C2=O | inactive: 17.5%
15 | O=[N+]([O-])c1ccc2c(c1)nnn2O | inactive: -5.09%
16 | CCOP1(=S)c2c(C)nn(CCC#N)c2N=C(c2ccc(F)cc2)N1C (stereo not given) | inactive: -4.39%
17 | CN(C(=O)Cc1ccccc1)[C@@H]1CC[C@]2(CCCO2)C[C@H]1N1CCCC1 | inactive: 15.7%
18 | N#CCCN(C(=O)COC(=O)C(O)(c1ccccc1)c1ccccc1)c1ccc(F)cc1 | inactive: 6.53%
19 | NC(=O)Nc1ccc([As](=O)(O)O)cc1 | inactive: 7.89%
20 | O=[As](O)(c1cccc(O)c1)c1cccc(O)c1 | inactive: 8.25%
21 | Cc1cccc(OCC(=O)OC2CN3CCC2CC3)c1 (stereo not given) | inactive: 2.73%
22 | CS(=O)(=O)c1ccc(Cl)c(NC(=O)COC(=O)C(O)(c2ccccc2)c2ccccc2)c1 | inactive: -25.1%
23 | COc1cc(C(=O)NCC2(N3CCOCC3)CCCCC2)cc(Cl)c1OC(C)C | inactive: -17%
24 | O=[As](O)(O)c1cccnc1 | inactive: 8.44%
25 | O=C(OC1CN2CCC1CC2)c1ccc(Cl)cc1 (stereo not given) | inactive: 11.3%
26 | CCOP(=O)(Nc1cccc2ccccc12)OCC | inactive: 6.38%
27 | COc1cc(C2NCCC3(OCCO3)C2(C)C)cc(OC)c1OC (stereo not given) | inactive: 3.05%

Row | Compound | inhibition
28 | CCCOP(=S)(Nc1nc(N)cc(=O)[nH]1)OCCC | inactive: 12.4%
29 | Cc1ccc(NCCc2c([N+](=O)[O-])cc([N+](=O)[O-])cc2[N+](=O)[O-])cc1 | inactive: -1.21%
30 | CC(C)(C)C(=O)NC(Sc1ncccn1)C(Cl)(Cl)Cl (stereo not given) | inactive: -11.9%
31 | Clc1n[nH]nc1-c1nn[nH][15n]1 | inactive: -0.785%
32 | CN(CCCl)Cc1cc(Cl)c(NC2=NCCN2)c(Cl)c1 | inactive: -3.29%
33 | CCOP(=O)(Nc1ccc(C)cn1)OCC | inactive: -21.3%
34 | CCOP(=O)(NC(=NC(C)c1ccccc1)NC(C)c1ccccc1)OCC (stereo not given) | inactive: -6.03%
35 | CCC1=CC2Cc3nc4ccc(Cl)cc4c(N)c3C(C1)C2 (stereo not given) | inactive: -14.7%
36 | O=P1(Nc2ccccn2)COc2ccccc2OC1 | inactive: -5.09%
37 | CC1(CBr)Cn2c(nc3ccccc3c2=O)S1 (stereo not given) | inactive: 4.58%
38 | CN(C(=O)Cc1ccc(Cl)c(Cl)c1)[C@@H]1CCCC[C@H]1N1CCCC1 | inactive: 13.6%
39 | CC(C)/C=N\N=C(\N)N[N+](=O)[O-] | inactive: 0.231%
40 | COc1ccccc1CNC(=O)COC(=O)C(O)(c1ccccc1)c1ccccc1 | inactive: 21.4%
41 | O=C(/C=C/c1ccccc1)OC1CN2CCC1CC2 (stereo not given) | inactive: 2.18%
42 | CN(C)C1(CNC(=O)c2ccc(S(C)(=O)=O)cc2)CCCCC1 | inactive: -9.7%
43 | Cc1ccc(C(=O)OC2CN3CCC2CC3)cc1 (stereo not given) | inactive: 2.87%
44 | CC1CCC(C(C)C)C(OP(=O)(Nc2ccccn2)c2ccccc2)C1 (stereo not given) | inactive: 14.2%
45 | Cc1nn(-c2ccccc2)c2c1P(=O)(N1CCOCC1)N(C)C(c1ccccc1)=N2 (stereo not given) | inactive: 12.6%
46 | NS(=O)(=O)c1cccc(NC(=O)COC(=O)C(O)(c2ccccc2)c2ccccc2)c1 | inactive: 1.36%
47 | O=P1(Nc2ccc(Br)cn2)COc2ccccc2OC1 | inactive: 0.655%
48 | O=[As](O)(c1cccs1)c1cccs1 | inactive: -11.6%
49 | Cc1ccc(OCC(=O)OC2CN3CCC2CC3)cc1 (stereo not given) | inactive: 16.1%
50 | Nc1cccc([As](=O)(O)c2ccccc2)c1 | inactive: 3.74%
51 | O=P1(Nc2ncccn2)COc2ccccc2OC1 | inactive: -8.14%
52 | Cc1cc(SC(NC(=O)c2ccccc2)C(Cl)(Cl)Cl)nc(C(C)C)n1 (stereo not given) | inactive: 36.7%
53 | CCCCOc1ccc(C(=O)NCC2(N3CCCCC3)CCCCC2)cc1OC | inactive: -4.36%
54 | CCOC(=O)Nc1ccc([As](=O)(O)O)c(O)c1 | inactive: 4.64%

Row | Compound | inhibition
55 | Cc1cc(SC(NC=O)C(Cl)(Cl)Cl)ncn1 (stereo not given) | inactive: -9.88%
56 | O=P(Nc1ccccn1)(c1cccc2ccccc12)c1cccc2ccccc12 | inactive: -0.985%
57 | CCOC(=O)Nc1cccc([As](=O)(O)O)c1 | inactive: -21.1%
58 | O=C(Nc1ccncc1[N+](=O)[O-])c1ccc([N+](=O)[O-])cc1[N+](=O)[O-] | inactive: 6.59%
59 | O=C(COc1ccccc1)OC1CN2CCC1CC2 (stereo not given) | inactive: 0.442%
60 | COP1(=S)c2c(C)nn(CCC#N)c2N=C(c2ccc(F)cc2)N1C (stereo not given) | inactive: -17.3%
61 | CCC(C)N(CC(C)C)C(=S)SC(NC(C)=O)C(Cl)(Cl)Cl (stereo not given) | inactive: 2.4%
62 | CCOC(=O)c1ccc(NC(=O)C(C)(CCl)SC)cc1 (stereo not given) | inactive: -36%
63 | O=C(OC1CN2CCC1CC2)c1cccc([N+](=O)[O-])c1 (stereo not given) | inactive: -9.22%
64 | COc1cc(I)ccc1[As](=O)(O)O | inactive: 3.18%
65 | COc1ccc2nc(NP(=O)(c3ccccc3)c3ccccc3)sc2c1 | inactive: 22.1%
66 | Cc1cc(=O)[nH]c(N[N+](=O)[O-])n1 | inactive: -17.7%
67 | O=C(OC1CN2CCC1CC2)C12CC3CC(CC(C3)C1)C2 (stereo not given) | inactive: 0.846%
68 | Cc1c2c(nc3ccccc13)SC(C(Cl)Cl)C2 (stereo not given) | inactive: 4.82%
69 | COc1ccc(N/C(=N/P(=O)(N2CCOCC2)N2CCOCC2)N2CCOCC2)cc1 | inactive: 5.9%
70 | Cc1ccc2nc3c(c(C)c2c1)CC(C(Cl)Cl)S3 (stereo not given) | inactive: -21.8%
71 | Cc1ccc(OP(=O)(Nc2ccc([N+](=O)[O-])cn2)Oc2ccc(C)cc2)cc1 | inactive: -3.95%
72 | COc1cc(C(=O)NCC2(N3CCOCC3)CCCCC2)ccc1OCC(C)C | inactive: -6.18%
73 | C[As](=O)(O)c1cccc(C(=O)O)c1 | inactive: -2.7%
74 | O=[As](O)(c1ccc(O)cc1)c1ccccc1O | inactive: 0.804%
75 | O=[N+]([O-])c1cc([N+](=O)[O-])c(-c2ccn[nH]2)s1 | inactive: 25.2%
76 | O=C(OC1CN2CCC1CC2)c1cccc2[nH]cnc12 (stereo not given) | inactive: 11.4%
77 | CCN(CC)C(=S)SC(NC=O)C(Cl)(Cl)Cl (stereo not given) | inactive: -18.8%
78 | CC(C)NC(=O)NP(=O)(Oc1ccccc1)Oc1ccccc1 | inactive: -3.09%
79 | CC(C)c1ccc(OP(=O)(Nc2ccccn2)Oc2ccccc2F)cc1 (stereo not given) | inactive: 1.27%
80 | ClCCSc1nnc(-c2cccnc2)o1 | inactive: 5.5%
